Laboratory results: patent US9408888B2, “High affinity bivalent helically constrained peptide against cancer” (COUNCIL OF SCIENTIFIC AND INDUSTRIAL RESEARCH, priority 2011, dated 2016)

What was measured:
S100B = target: T1, S100B (Homo sapiens, UniProt P04271); test: Fluorescence anisotropy binding of N-terminal fluorescein labeled peptides to S100B; conditions: 50 mM Tris-HCl pH 7.5, 50 mM NaCl, 10 mM CaCl2, 25 degree C, read-out: Kd (dissociation constant) for S100B
T1 sequence (P04271 1-92): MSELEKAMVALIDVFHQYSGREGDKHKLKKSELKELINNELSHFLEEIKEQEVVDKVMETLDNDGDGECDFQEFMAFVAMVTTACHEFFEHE
Text: (§1) FIG. 2. (A) Table of some representative peptides synthesized which respectively include pM-53 (SEQ ID No. 6), pBN-53 (SEQ ID No. 7), pBDC-53 (SEQ ID No. 8), pBM-TRTK (SEQ ID No. 2), pBDC-TRTK (two SEQ ID No. 2's cross-linked together with BMH), and pBBD-TRTK (SEQ ID No. 11) and their dissociation constants. Binding isotherm of branch dimeric SEQ ID No. 3 (i.e., SEQ ID No. 11) with (B) S-100B and (C) S100P and (D) branch dimeric SEQ ID No. 5 (i.e., SEQ ID No. 12) with S100B. Fluorescein labeled, 5 nM branch dimeric SEQ ID No. 3 (i.e., SEQ ID No. 11) or branch dimeric SEQ ID No. 5 (i.e., SEQ ID No. 12) was titrated with increasing concentrations of S100B or S100P in 50 mM Tris-HCl buffer, pH 7.5, containing 50 mM NaCl and 10 mM CaCl2 at ambient temperatures which was 25±1 degree C. Anisotropy was determined at each point. The each point is averaging of at least three independent experiments. The line is best fit to a single site binding equation given in description of the invention.
Binding affinity of aib substituted p53 (SEQ ID No. 7) (and all other peptides) was estimated by fluorescence anisotropy using N-terminal fluorescein labeled peptides. […] Since S100B is a dimer, one possible way to enhance the binding is to synthesize a bivalent molecule, which can simultaneously bind to two subunits. […]

S100P = target: T2, S100P (Homo sapiens, UniProt P25815); test: Fluorescence anisotropy binding of fluorescein labeled peptide to S100P; conditions: closest paralog of S100B
T2 sequence (P25815 1-95): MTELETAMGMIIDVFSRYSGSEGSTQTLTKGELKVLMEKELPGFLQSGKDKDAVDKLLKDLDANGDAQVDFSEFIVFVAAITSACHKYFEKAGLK
Text: as §1
Binding data of the several of these peptides are shown in FIG. 2 (A) and some of the corresponding binding isotherms are shown FIG. 2(B-D). […] Also synthesized was a mutant branched peptide (SEQ ID No. 12 which is a lysine branch dimeric form of SEQ ID No. 5) bearing two mutations in the interacting residues. […] This peptide will be used as a control in the cellular experiments to be described later.

Kd (S100B): 7.7 ± 3.5 nM | weaker binding to S100P than to S100B (selectivity) (S100P): approximately 7 fold
Compound: CC[C@H](C)[C@H](NC(=O)[C@H](CCCCN)NC(=O)[C@@H](NC(=O)[C@H](CCCNC(=N)N)NC(=O)[C@@H](N)[C@@H](C)O)[C@@H](C)O)C(=O)N[C@@H](CC(=O)O)C(=O)N[C@@H](Cc1c[nH]c2ccccc12)C(=O)NC(C)(C)C(=O)N[C@@H](CCCCN)C(=O)N[C@H](C(=O)N[C@@H](CC(C)C)C(=O)NC(C)(C)C(=O)N[C@@H](CCCCN)C(=O)NCCCCCC(=O)NCCCC[C@H](NC(=O)CCCCCNC(=O)[C@H](CCCCN)NC(=O)C(C)(C)NC(=O)[C@H](CC(C)C)NC(=O)[C@@H](NC(=O)[C@H](CCCCN)NC(=O)C(C)(C)NC(=O)[C@H](Cc1c[nH]c2ccccc12)NC(=O)[C@H](CC(=O)O)NC(=O)[C@@H](NC(=O)[C@H](CCCCN)NC(=O)[C@@H](NC(=O)[C@H](CCCNC(=N)N)NC(=O)[C@@H](N)[C@@H](C)O)[C@@H](C)O)[C@@H](C)CC)[C@@H](C)CC)C(N)=O)[C@@H](C)CC [branch dimeric SEQ ID No. 3]
